Antibody variant affinities, Ab-14 light chain, assay B

All variants were tested on one target, the spike HR2 peptide PDVDLGDISGINAS (SARS-CoV-2).

Parent scFv Ab-14: VH joined to VL by three GGGGS repeats. Changes lie in the light chain CDRs alone.
VH: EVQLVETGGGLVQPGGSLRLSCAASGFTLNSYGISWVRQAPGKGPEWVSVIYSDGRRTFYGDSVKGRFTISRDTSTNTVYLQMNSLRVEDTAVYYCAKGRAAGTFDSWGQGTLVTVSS
VL: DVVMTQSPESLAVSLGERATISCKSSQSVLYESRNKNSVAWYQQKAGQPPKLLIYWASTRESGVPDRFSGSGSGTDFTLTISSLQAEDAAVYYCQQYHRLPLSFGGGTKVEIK

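The starting antibody came from a phage panning campaign against this peptide. These sequences belong to a second round, designed from the earlier measurements on random variants of the parent. Group labels follow the data file (Ctrl: baseline library sampled from a position-specific scoring matrix, with some repeated check sequences; En: ensemble of fine-tuned language models; GP: Gaussian process model; HC: hill climbing; Gen: genetic algorithm; Gibbs: Gibbs sampling; a sequence that several methods proposed may carry one label only). Affinity was read by AlphaSeq, a pooled yeast mating assay with surface-displayed partners. Pairs that bind mate more often; barcode pairs of the diploids are counted by sequencing. Read counts were normalised to the haploid input and turned into Kd by a linear fit to BCL2-family pairs of known affinity, for each replicate. The assay was run in six technical replicates.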

The whole VL of each variant is written out. Numbers give log10(Kd / nM), so 0 is 1 nM and 3 is 1 µM. Smaller is tighter. The mean shown is taken over the replicates in which the pair was detected. An entry "nd" has no value in the source: the pair was not observed among the diploids in that replicate. This suggests poor binding but is not conclusive. In the paper, a design with two or fewer of six values counts as a poor binder.

{"VL": "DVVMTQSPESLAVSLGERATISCKLSGLMQSSKFAKDNVAWYQQKAGQPPKLLIYENNTREAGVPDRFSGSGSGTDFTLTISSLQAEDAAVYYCQQYDRLPLSFGGGTKVEIK", "group": "En_Gen", "replicates, log10 nM": "nd / nd / nd / nd / nd / nd", "log10 Kd (nM), mean": "nd"}
{"VL": "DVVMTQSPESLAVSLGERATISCKLDISELYESRNWNSVAWYQQKAGQPPKLLIYNASQREEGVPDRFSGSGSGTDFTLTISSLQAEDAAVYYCQQYHRLPLSFGGGTKVEIK", "group": "GP_Gibbs", "replicates, log10 nM": "-0.06 / -0.10 / -0.18 / -0.37 / -0.13 / 0.18", "log10 Kd (nM), mean": "-0.11"}
{"VL": "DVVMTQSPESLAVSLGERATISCKLYMLTGYESRNADSIAWYQQKAGQPPKLLIYDNSTRGRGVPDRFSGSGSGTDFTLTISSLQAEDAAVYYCQQYHRLPLSFGGGTKVEIK", "group": "En_HC", "replicates, log10 nM": "2.64 / 2.89 / 1.05 / 0.90 / 2.08 / 1.83", "log10 Kd (nM), mean": "1.90"}
{"VL": "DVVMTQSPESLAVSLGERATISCTISQSFHMENQFKNSVAWYQQKAGQPPKLLIYQASTRESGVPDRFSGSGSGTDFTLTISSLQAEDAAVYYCQCYDRLPLSFGGGTKVEIK", "group": "En_HC", "replicates, log10 nM": "nd / 2.30 / nd / 2.64 / nd / nd", "log10 Kd (nM), mean": "2.47"}
{"VL": "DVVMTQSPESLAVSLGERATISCQIYQAGHTLMQAINNVAWYQQKAGQPPKLLIYDVTNRNNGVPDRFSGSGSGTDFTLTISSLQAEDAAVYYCQQYHRLPLSFGGGTKVEIK", "group": "En_Gen", "replicates, log10 nM": "nd / 2.38 / 2.66 / 3.26 / 1.65 / nd", "log10 Kd (nM), mean": "2.49"}
{"VL": "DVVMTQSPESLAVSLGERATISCMISMMMRQETGVRNNIAWYQQKAGQPPKLLIYNSQTREQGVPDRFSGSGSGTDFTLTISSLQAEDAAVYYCQQYHRLPISFGGGTKVEIK", "group": "En_Gen", "replicates, log10 nM": "1.32 / 0.74 / 0.71 / 0.74 / 0.77 / 0.96", "log10 Kd (nM), mean": "0.87"}
{"VL": "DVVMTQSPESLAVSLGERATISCKLGMTLNELMMKKNNVAWYQQKAGQPPKLLIYDLVMRENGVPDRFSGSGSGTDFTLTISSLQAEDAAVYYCQQYHRLPLSFGGGTKVEIK", "group": "En_Gen", "replicates, log10 nM": "0.15 / -0.20 / -0.41 / -0.04 / -0.37 / -0.25", "log10 Kd (nM), mean": "-0.19"}
{"VL": "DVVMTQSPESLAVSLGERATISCKCSISVEQLSRQKNSVAWYQQKAGQPPKLLIYHASTRESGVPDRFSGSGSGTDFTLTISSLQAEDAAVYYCQQYHRLPLSFGGGTKVEIK", "group": "GP_Gibbs", "replicates, log10 nM": "0.66 / 0.60 / 0.74 / 0.41 / 0.58 / 0.83", "log10 Kd (nM), mean": "0.64"}
{"VL": "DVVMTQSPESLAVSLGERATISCKSSQSELNESRNKNSVAWYQQKAGQPPKLLIYDASTRESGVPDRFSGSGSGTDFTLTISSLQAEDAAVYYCQQYHRLPLSFGGGTKVEIK", "group": "GP_HC", "replicates, log10 nM": "0.20 / 0.27 / 0.00 / -0.15 / -0.23 / -0.06", "log10 Kd (nM), mean": "0.00"}
{"VL": "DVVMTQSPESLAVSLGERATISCKLQQSVQYESRNKNSVAWYQQKAGQPPKLLIYNASTRMSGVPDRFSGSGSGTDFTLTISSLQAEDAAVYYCQQYHRLPLSFGGGTKVEIK", "group": "GP_Gen", "replicates, log10 nM": "-0.10 / -0.21 / -0.29 / -0.32 / -0.26 / -0.18", "log10 Kd (nM), mean": "-0.23"}
{"VL": "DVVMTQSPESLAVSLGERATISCHLSQSVLMESRNKNSVAWYQQKAGQPPKLLIYSASTRESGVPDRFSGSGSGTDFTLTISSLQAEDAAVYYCQQYHRLPLSFGGGTKVEIK", "group": "GP_Gen", "replicates, log10 nM": "-0.03 / -0.05 / -0.12 / -0.10 / 0.00 / 0.24", "log10 Kd (nM), mean": "-0.01"}
{"VL": "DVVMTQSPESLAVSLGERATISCKSSQSQLYESVNKNSVAWYQQKAGQPPKLLIYHASTRESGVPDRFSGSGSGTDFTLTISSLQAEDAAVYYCQQYHRLPLSFGGGTKVEIK", "group": "GP_HC", "replicates, log10 nM": "0.36 / 0.25 / 0.29 / 0.24 / 0.42 / 0.45", "log10 Kd (nM), mean": "0.34"}
{"VL": "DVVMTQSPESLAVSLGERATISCKLSQSQLYESRQKNSVAWYQQKAGQPPKLLIYNASTRLSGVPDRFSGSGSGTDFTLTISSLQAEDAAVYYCQQYHRLPLSFGGGTKVEIK", "group": "GP_Gen", "replicates, log10 nM": "0.21 / -0.05 / -0.09 / -0.03 / -0.08 / 0.27", "log10 Kd (nM), mean": "0.04"}
{"VL": "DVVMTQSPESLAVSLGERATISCKLRQSTLYESRNPNSVAWYQQKAGQPPKLLIYWASVRESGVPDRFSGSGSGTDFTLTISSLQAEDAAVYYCQQYHRLPLSFGGGTKVEIK", "group": "GP_HC", "replicates, log10 nM": "0.67 / 0.42 / 0.44 / 0.38 / 0.65 / 0.44", "log10 Kd (nM), mean": "0.50"}
{"VL": "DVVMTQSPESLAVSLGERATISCKLQQQDEYESRNKNSVAWYQQKAGQPPKLLIYNASTRSQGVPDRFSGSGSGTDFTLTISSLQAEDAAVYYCQQYHRLPLSFGGGTKVEIK", "group": "GP_Gibbs", "replicates, log10 nM": "-0.19 / -0.15 / -0.19 / -0.44 / -0.38 / -0.35", "log10 Kd (nM), mean": "-0.29"}
{"VL": "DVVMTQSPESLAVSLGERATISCKLLDYEYGTWAMNSAIAWYQQKAGQPPKLLIYDAALESDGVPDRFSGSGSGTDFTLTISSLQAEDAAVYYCQQYDRLPLTFGGGTKVEIK", "group": "En_Gibbs", "replicates, log10 nM": "nd / 1.15 / 0.59 / 1.63 / nd / 0.90", "log10 Kd (nM), mean": "1.07"}
{"VL": "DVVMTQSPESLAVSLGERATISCMISDLTYVGMRNVNSVAWYQQKAGQPPKLLIYDLSTRGNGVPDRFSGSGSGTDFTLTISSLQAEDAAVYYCQQYDRLPLSFGGGTKVEIK", "group": "En_HC", "replicates, log10 nM": "0.87 / 0.85 / 0.30 / 0.98 / 1.08 / 0.65", "log10 Kd (nM), mean": "0.79"}
{"VL": "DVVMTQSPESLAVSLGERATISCKSNQSVLYESRNENSVAWYQQKAGQPPKLLIYWASTRESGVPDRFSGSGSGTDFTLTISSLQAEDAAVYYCQQYHRLPLAFGGGTKVEIK", "group": "Ctrl", "replicates, log10 nM": "2.74 / nd / 2.89 / 2.47 / nd / 3.08", "log10 Kd (nM), mean": "2.79"}
{"VL": "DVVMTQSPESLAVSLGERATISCKESQSVLYESRRLNSVAWYQQKAGQPPKLLIYWASTRESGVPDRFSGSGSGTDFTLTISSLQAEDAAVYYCQQYHRLPLSFGGGTKVEIK", "group": "Ctrl", "replicates, log10 nM": "nd / nd / nd / nd / nd / nd", "log10 Kd (nM), mean": "nd"}
{"VL": "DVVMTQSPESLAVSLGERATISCKLSQWQWGESRNKNSVAWYQQKAGQPPKLLIYSASTRCSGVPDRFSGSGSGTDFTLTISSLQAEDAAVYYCQQYHRLPLSFGGGTKVEIK", "group": "GP_Gibbs", "replicates, log10 nM": "0.15 / 0.37 / 0.20 / 0.06 / 0.21 / 0.24", "log10 Kd (nM), mean": "0.20"}
{"VL": "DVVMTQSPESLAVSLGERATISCKSSQSVLYESHNKNSVAWYQQKAGQPPKLLIYMASTRESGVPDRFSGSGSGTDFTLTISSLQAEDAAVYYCQQYHRLPLSFGGGTKVEIK", "group": "Ctrl", "replicates, log10 nM": "nd / nd / nd / nd / 2.56 / nd", "log10 Kd (nM), mean": "2.56"}
{"VL": "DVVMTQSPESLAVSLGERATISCKYSQSVLYESRNKNSVAWYQQKAGQPPKLLIYKASTRESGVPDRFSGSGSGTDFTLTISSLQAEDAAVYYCQQYHRLPLSFGGGTKVEIK", "group": "Ctrl", "replicates, log10 nM": "1.08 / 1.53 / 1.03 / 1.09 / 1.38 / 0.90", "log10 Kd (nM), mean": "1.17"}
{"VL": "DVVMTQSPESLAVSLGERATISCKVSQSFLYESRNKNAVAWYQQKAGQPPKLLIYGASTRESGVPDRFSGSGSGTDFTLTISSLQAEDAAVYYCQQYHRLDLSFGGGTKVEIK", "group": "GP_HC", "replicates, log10 nM": "-0.23 / 0.04 / -0.41 / -0.41 / -0.44 / -0.24", "log10 Kd (nM), mean": "-0.28"}

Empty control strains, which show no peptide, gave a signal in 4% of pairings with all light chain designs; the median was 2.64 and 95% of these signals were weaker than 1.59. No background was subtracted. Values of this round are not directly comparable with the first-round values of the same sequences.

Reference: Li et al. 2023, doi:10.1038/s41467-023-39022-2. File: FLAb, binding data.